Results: ChEMBL document CHEMBL1949581, “Anion inhibition studies of an α-carbonic anhydrase from the living fossil Astrosclera willeyana” (Bioorg Med Chem Lett, 2012)

Biological target: T1, Astrosclerin-3 (Astrosclera willeyana, UniProt A6YCJ1)
T1 sequence (A6YCJ1 whole entry): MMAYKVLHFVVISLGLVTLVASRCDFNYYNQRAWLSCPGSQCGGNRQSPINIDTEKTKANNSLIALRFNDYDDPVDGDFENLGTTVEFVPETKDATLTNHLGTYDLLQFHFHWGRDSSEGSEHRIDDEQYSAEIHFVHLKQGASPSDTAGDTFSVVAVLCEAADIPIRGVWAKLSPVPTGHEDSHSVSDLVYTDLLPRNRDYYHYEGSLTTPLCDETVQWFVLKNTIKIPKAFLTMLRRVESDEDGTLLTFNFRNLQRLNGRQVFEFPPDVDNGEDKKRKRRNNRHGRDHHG
Experiment: biochemical
Assay type: cell-based

N#C[S-].[Na+] [THIOCYANATE SODIUM]
Ki: 670 µM
